## Melting point values, as collected for the OPERA models

From the experimental data distributed with OPERA 2.9.

The melting point is given in degrees Celsius. Cells with "n/a" have no entry in this list. The databases behind each value are named after "via".

structure (SMILES)	name	melting point (°C)	via
CCCC[C@H]1CC[C@H](C2CCC(=O)CC2)CC1	n/a	42.85	eChemPortal
O=C1NC(c2ccccc2)(c2ccccc2)C(=O)N1COP(=O)(O)O	Fosphenytoin	174.8	PubChem
Cc1ccc(C(=O)Nc2ccc(S(=O)(=O)[O-])cc2)cc1[N+](=O)[O-].[Na+]	Sodium 4-(4-methyl-3-nitrobenzoylamino)benzenesulphonate	298.5	eChemPortal
CC(C)=CCC/C(C)=C/CC/C(C)=C/CC/C(C)=C/CC/C(C)=C/CC/C(C)=C/CC/C(C)=C/CC1=C(C)C(=O)c2ccccc2C1=O	Menaquinone 7	54	PubChem
CC(=O)OCC(=O)[C@H]1[C@H](C)C[C@H]2[C@@H]3C[C@H](F)C4=CC(=O)CC[C@]4(C)[C@H]3[C@@H](O)C[C@@]21C	n/a	259.7	eChemPortal
O=C1NC(=O)C(c2ccc(O)cc2)N1 (stereo not given)	5-(4-Hydroxyphenyl)imidazolidine-2,4-dione	271.9	eChemPortal
COc1cc(N)ccc1N1CCCC1=O	1-(4-Amino-2-methoxyphenyl)pyrrolidin-2-one	127	OCHEM
O=Cc1ccc(OCc2ccccn2)cc1	4-(pyridin-2-ylmethoxy)benzaldehyde	89	OCHEM
CCO[Si](CN1CCOCC1)(OCC)OCC	Morpholine, 4-[(triethoxysilyl)methyl]-	-100.2	eChemPortal
CN1CCN(CC(=O)N2c3ccccc3C(=O)Nc3cccnc32)CC1.Cl	Pirenzepine monohydrochloride	271.1	eChemPortal
O=C(O)C1CC(=O)N(c2ccccc2F)C1 (stereo not given)	1-(2-fluorophenyl)-5-oxopyrrolidine-3-carboxylic acid	132	OCHEM
S=c1[nH]c2cc(Br)cnc2[nH]1	6-Bromo-1,3-dihydro-2H-imidazo[4,5-b]pyridine-2-thione	325	OCHEM
CC(=O)c1ccc2c(c1)CCC(=O)N2	6-Acetyl-3,4-dihydroquinolin-2(1H)-one	163	OCHEM
c1ccc(C2NCCn3cccc32)cc1 (stereo not given)	1-phenyl-1,2,3,4-tetrahydropyrrolo[1,2-a]pyrazine	73	OCHEM
CNC(=O)c1ccc(S(=O)(=O)Cl)cc1	4-(Methylcarbamoyl)benzene-1-sulfonyl chloride	128	OCHEM
CCN(Cc1cccc(S(=O)(=O)[O-])c1)c1ccc(C(=C2C=CC(=[N+](CC)Cc3cccc(S(=O)(=O)[O-])c3)C=C2)c2ccccc2)cc1.[Na+]	FD&C Green No. 1	255	PubChem
CCN(CC)S(=O)(=O)c1ccc(N2CCCCC2)c(N)c1	3-Amino-N,N-diethyl-4-piperidin-1-yl-benzenesulfonamide	76	OCHEM
O=S(=O)(Cl)c1ccc2oc3ccccc3c2c1	dibenzo[b,d]furan-2-sulfonyl chloride	135	OCHEM
CCCCCCCCCCCC(=O)OC(C)C	Isopropyl Laurate	-8	eChemPortal
CCCCCCC1(C)CCC(=O)O1 (stereo not given)	Dihydrojasmone lactone	-14.2	eChemPortal
OCCNc1ccccn1	2-(pyridin-2-ylamino)ethanol	65	OCHEM
Cl/C(=C\c1ccccc1)c1ccccc1	1,1'-[(Z)-1-Chloro-1,2-ethenediyl]dibenzene	53.5	OCHEM
Clc1cc(Cl)c(Oc2cc(Cl)c(Cl)c(Cl)c2)cc1Cl	2,3',4,4',5,5'-Hexachlorodiphenyl ether	84	QSARDB
C=CC(C)(O)CC/C=C(\C)CC (stereo partly drawn)	Ethyl linalool	-73	eChemPortal
CCc1ccc2nc(N)sc2c1	6-ethyl-1,3-benzothiazol-2-amine	106	OCHEM
CCOC(=O)c1oc2c(Cl)cccc2c1C	Ethyl 7-chloro-3-methyl-1-benzofuran-2-carboxylate	64	OCHEM
Cc1ccc(C(C)(C)C)cc1S(N)(=O)=O	5-tert-Butyl-2-methylbenzene-1-sulfonamide	139	OCHEM
O=C(O)CNC(=O)COc1ccccc1	N-(phenoxyacetyl)glycine	90	OCHEM
O=C(O)c1cn2cccnc2n1	Imidazo[1,2-a]pyrimidine-2-carboxylic acid	256	OCHEM
CCCC(C)=NO[Si](ON=C(C)CCC)(ON=C(C)CCC)c1ccccc1	n/a	-21.5	eChemPortal
CCO[Si](CC[Si](OCC)(OCC)OCC)(OCC)OCC	1,2-Bis(triethoxysilyl)ethane	-34	eChemPortal
Brc1ccc(Oc2c(Br)cccc2Br)cc1	BDE-32	77.2	OCHEM
Fc1cccc(CBr)c1C(F)(F)F	3-Fluoro-2-(trifluoromethyl)benzyl bromide	41.5	OCHEM
COc1cccc(-c2nc(C=O)cs2)c1	2-(3-Methoxyphenyl)-1,3-thiazole-4-carbaldehyde	93	OCHEM
C=C(C#N)C(=O)OC	Methyl 2-cyanoacrylate	-21.5	PubChem, eChemPortal
CS(=O)(=O)Oc1ccc(Nc2ccc(O)c3c2C(=O)c2ccccc2C3=O)cc1	n/a	182	eChemPortal
Cc1cc2nc3c(=O)[nH]c(=O)nc-3n(C[C@H](O)[C@H](O)[C@H](O)COP(=O)(O)O)c2cc1C	Riboflavin phosphate	290	PubChem
CCCCCCCC/C=C\CCCCCCCC(=O)OCC(C)(C)COC(=O)CCCCCCC/C=C\CCCCCCCC	2,2-Dimethyl-1,3-propanediyl dioleate	-21	eChemPortal
Nc1cccc(S(=O)(=O)Nc2ccccc2C(=O)O)c1	2-[(3-Aminobenzene-1-sulfonyl)amino]benzoic acid	199	OCHEM
Cc1cc(NN)nc2ccccc12	2-hydrazino-4-methylquinoline	147	OCHEM
[NH-]S(=O)(=O)c1ncccc1OCC(F)(F)F.[Na+]	n/a	248.6	eChemPortal
O=C(O)Cc1coc2cc(O)ccc12	2-(6-hydroxybenzofuran-3-yl)acetic Acid	128	OCHEM
CCCn1c(-c2ccncc2)n[nH]c1=S	4-propyl-5-pyridin-4-yl-4H-1,2,4-triazole-3-thiol	259	OCHEM
CN1CCC2(CC1)NC(=O)NC2=O	1,3,8-Triazaspiro(4.5)decane-2,4-dione, 8-methyl-	284	OCHEM
Cc1ccc(NC(=O)Nc2ccc(Cc3ccc(NC(=O)Nc4ccc(C)cc4)cc3)cc2)cc1	n/a	288	eChemPortal
CC(=O)c1ccc(-c2ccccc2)s1	1-(5-phenylthiophen-2-yl)ethanone	116	OCHEM
CC(C)CCOC(=N)O	3-Methylbutyl hydrogen carbonimidate	59	OCHEM
CNc1ccc(O)cc1	N-Methyl-p-aminophenol	87	PubChem
CN1CCN(C(N)=S)CC1	4-methylpiperazine-1-carbothioamide	180	OCHEM
CN(C)CCC(=O)N(C)C	Propanamide, 3-(dimethylamino)-N,N-dimethyl-	0.5	eChemPortal
O=C(O)c1ccccc1NS(=O)(=O)c1ccc(Br)cc1	Benzoic acid, 2-(((4-bromophenyl)sulfonyl)amino)-	226	OCHEM

Extract of 4 entries:

{"smiles": "CC(C)CCOC(=N)O", "name": "3-Methylbutyl hydrogen carbonimidate", "melting point (°C)": "59", "via": "OCHEM"}
{"smiles": "CCN(CC)S(=O)(=O)c1ccc(N2CCCCC2)c(N)c1", "name": "3-Amino-N,N-diethyl-4-piperidin-1-yl-benzenesulfonamide", "melting point (°C)": "76", "via": "OCHEM"}
{"smiles": "O=Cc1ccc(OCc2ccccn2)cc1", "name": "4-(pyridin-2-ylmethoxy)benzaldehyde", "melting point (°C)": "89", "via": "OCHEM"}
{"smiles": "O=C(O)c1cn2cccnc2n1", "name": "Imidazo[1,2-a]pyrimidine-2-carboxylic acid", "melting point (°C)": "256", "via": "OCHEM"}

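The OPERA project collected these measurements from public sources as training and test data for property models. One number stands for a compound and property, with no spread given. Conditions of the individual experiments are not part of the data. The measured form (salt, isomer or mixture) is not always the one drawn. Some entries may be limits or estimates that an upstream database listed as plain numbers.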